Results on 2 molecules are retold here after PubChem BioAssay AID813 (Sanford-Burnham Center for Chemical Genomics, 2007).

The chains behind the UniProt entries cited, without tags or fusion partners.
UniProt P05186, whole entry: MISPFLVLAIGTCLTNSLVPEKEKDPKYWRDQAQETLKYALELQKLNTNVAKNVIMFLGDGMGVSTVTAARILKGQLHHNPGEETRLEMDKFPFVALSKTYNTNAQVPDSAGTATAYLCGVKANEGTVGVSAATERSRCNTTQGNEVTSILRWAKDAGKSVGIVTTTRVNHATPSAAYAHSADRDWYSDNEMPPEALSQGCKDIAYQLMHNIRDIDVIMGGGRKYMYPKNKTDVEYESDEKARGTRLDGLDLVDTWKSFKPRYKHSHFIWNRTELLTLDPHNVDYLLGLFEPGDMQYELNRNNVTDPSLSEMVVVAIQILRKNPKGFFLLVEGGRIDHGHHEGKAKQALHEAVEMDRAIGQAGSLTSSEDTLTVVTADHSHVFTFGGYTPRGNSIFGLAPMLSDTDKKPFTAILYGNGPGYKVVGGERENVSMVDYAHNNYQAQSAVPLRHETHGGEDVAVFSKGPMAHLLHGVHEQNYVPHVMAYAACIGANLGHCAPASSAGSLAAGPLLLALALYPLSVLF

Only a part is listed here, and it is no random draw. Some tests of the compounds listed are not included; inactive here does not mean inactive elsewhere. Calls of active or inactive are those of the source.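 Rule for the calls: active = activation factor of at least 2 at 20 µM, relative to controls; inactive = the rest.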

The assay has as its target Alkaline phosphatase, tissue-nonspecific isozyme (Homo sapiens) (UniProt P05186). Description: human TNAP enzyme activators, primary screen, biochemical, luminescent, intermediate phosphate acceptor level (AID 813). As to conditions: purified TNAP, CDP-star luminescence, 100 mM DEA, 30 min; at 20 µM; hits give high values; scale: 0 levamisole-inhibited, 1 vehicle-only enzyme.
As to `O=C(OC1CN2CCC1CC2)C(CO)(c1ccccc1)c1ccccc1` (configuration not stated), the activation factor was inactive: 1.

In the case of `CN(C)c1cccc(C(=O)NCC2(N(C)C)CCCCC2)c1`, the activation factor is inactive: 1.
